Measurements reported in article PMC7553530 (Oncoimmunology, 2020).

Test system: nivolumab
Assay: SPR binding to immobilized nivolumab
Design: species or system human
Conditions: chip validation, 1 μM rhPD-1 injected 3 min at 10 μl/min, 25°C

SPR response upon rhPD-1 injection over nivolumab: 3740 RU
Substance: rhPD-1: recombinant human PD-1 protein injected over the SPR chip for validation
